The GI50 is the concentration that inhibits growth by half. A high value points to less potent growth inhibition. Usually IC50 stands for the concentration needed to halve the response being measured. A lower IC50 goes with higher potency.

2 molecules from patent US6936723B2, “Synthetic salicylihalamides, apicularens and derivatives thereof” (Board of Regents, The University of Texas System, priority 2000, dated 2005) can be followed below.

In experiment [1] the test system is human melanoma cell line SK-MEL-5. Nature of the experiment: Growth inhibition of the SK-MEL-5 human melanoma cell line (MTT assay). To be noted: growth determined 2 days after addition by MTT assay, triplicate assays at 4 concentrations. For orientation: Formazan colour is commonly taken as a measure of viable cells.
In experiment [2] the target is purified reconstituted V-ATPase from bovine brain (Bos taurus, UniProt P23956+P61420+Q29466+Q2TA24). Nature of the experiment: Inhibition of purified reconstituted V-ATPase (proton pumping). The class given is biochemical.

In experiment [1], `CCCCCOC(=O)N/C=C/CC1C[C@@H](OC(=O)c2ccccc2)[C@@H](C)C/C=C/Cc2cccc(O)c2C(=O)O1` (stereo partly shown) displayed a 50% growth inhibitory concentration (GI50) of more than 20000 nM. Besides, the IC50 in experiment [2] was 180 nM.

As to `CC/C=C/C=C\C(=O)N(/C=C/C[C@H]1C[C@@H](O)[C@@H](C)C/C=C/Cc2cccc(O)c2C(=O)O1)C(=O)N/C=C/C[C@H]1C[C@@H](O)[C@@H](C)C/C=C/Cc2cccc(O)c2C(=O)O1`, the 50% growth inhibitory concentration (GI50) in experiment [1] worked out at 100 nM. The IC50 in experiment [2] worked out at 1.2 nM.
